Values of other authors, collected in patent US8524202B2, “Tooth whitening compositions and methods” (priority 2008, dated 2013).

**Q.** For chlorous acid, which “pKa for the chlorite ion/chlorous acid equilibrium” value is on record?
**A.** Its value is 1.8.
